From US10463649B2, “Inhibitors of Mc1-1 as drugs to overcome resistance to BRAF inhibitors and MEK inhibitors” (Texas Tech University System, priority 2015, dated 2019)

Assays:
[1] = system: Mcl-1; assay: Western blotting for Mcl-1 expression in SK-MEL-28 cells; assay type: cell-based; details: 72 hours
Procedure: Each study was performed three times independently.

[2] = system: A375-R cells; assay: Tumor therapy: A375-R xenografts in athymic nude mice; assay type: in vivo; details: day 30, vemurafenib 25 mg/kg twice a day oral, TW-37 30 mg/kg i.p. thrice a week, Mcl-1 siRNA intratumoral twice a week
[3] = system: A375 cells; assay: Cell viability / cytotoxicity by sulforhodamine B (SRB) assay in A375 cells

SMILES: CCCS(=O)(=O)Nc1ccc(F)c(C(=O)c2c[nH]c3ncc(-c4ccc(Cl)cc4)cc23)c1F [vemurafenib]
- Increase in expression of Mcl-1 ([1]; 0.1 μM vemurafenib): 10 fold
- Increase in expression of Mcl-1 ([1]; 0.2 μM vemurafenib): 11 fold
- Increase in expression of Mcl-1 ([1]; 0.4 μM vemurafenib): 14 fold
- Average tumor volume [2]: 1688±156.19 mm3
- Reduction of cell survival ([3]; A375 cells, 0.2 μM vemurafenib, 72 hours): about 55%
- IC50 ([3]; Homo sapiens, A-375, 72 h, read-out: IC50 of vemurafenib): 100 nM
